In assay [1] the test system is kappa opioid receptor. Particulars: P. V. Vanvoigtlander et al., J. Pharmacol. Exp. Ther., 224: 7-12 (1983); cited from earlier work.
Assay [2] addresses kappa opioid receptor (Cavia porcellus, UniProt P41144). Put plainly: kappa opioid receptor binding: inhibition of tritiated etorphine binding to guinea pig brain homogenates with DADLE and DAGO added to saturate delta and mu receptors. Particulars: for Ratio of kappa/mu binding: from Ki kappa and Ki mu; for Ki: read-out: Receptor Binding (Ki moles/liter) Kappa, tritiated etorphine, guinea pig brain homogenates, 200 nanomolar DADLE and 200 nanomolar DAGO.

The chains behind the UniProt entries cited, without tags or fusion partners. Where a name states a change or a piece, a line headed by the entry shows the natural chain unless it says otherwise. Residues count along the entry.
UniProt P41144: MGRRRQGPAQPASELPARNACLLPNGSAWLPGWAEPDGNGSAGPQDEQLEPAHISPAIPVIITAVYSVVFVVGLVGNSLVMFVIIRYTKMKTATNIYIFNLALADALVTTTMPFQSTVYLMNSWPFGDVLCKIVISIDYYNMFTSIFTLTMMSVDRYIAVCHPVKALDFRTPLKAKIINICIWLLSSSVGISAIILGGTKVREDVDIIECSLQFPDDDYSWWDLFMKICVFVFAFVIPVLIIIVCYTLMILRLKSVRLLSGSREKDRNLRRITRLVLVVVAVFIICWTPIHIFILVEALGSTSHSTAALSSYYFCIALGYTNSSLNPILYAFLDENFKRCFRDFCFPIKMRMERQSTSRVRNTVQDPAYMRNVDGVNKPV
UniProt A0ACM8Q262, 1-400: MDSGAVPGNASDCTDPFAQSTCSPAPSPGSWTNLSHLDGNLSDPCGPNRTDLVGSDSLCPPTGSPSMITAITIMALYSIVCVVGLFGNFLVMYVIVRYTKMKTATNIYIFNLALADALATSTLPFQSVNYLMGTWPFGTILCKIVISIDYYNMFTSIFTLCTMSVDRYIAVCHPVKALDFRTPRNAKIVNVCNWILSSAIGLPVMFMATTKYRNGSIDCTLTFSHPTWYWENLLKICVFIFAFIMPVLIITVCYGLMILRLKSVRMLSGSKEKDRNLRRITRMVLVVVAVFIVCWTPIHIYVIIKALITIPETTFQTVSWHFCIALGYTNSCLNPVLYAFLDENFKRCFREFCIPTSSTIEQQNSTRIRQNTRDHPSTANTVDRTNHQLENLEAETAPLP

Another assay addresses mu opioid receptor (Cavia porcellus, UniProt A0ACM8Q262). Put plainly: mu opioid receptor binding: tritiated DAGO, guinea pig brain homogenates. Particulars: read-out: Receptor Binding (Ki moles/liter) Mu, 150 minutes at 0° C.
Another assay deals with rat. Put plainly: rat paw pressure test (analgesia).

Take `CN(C(=O)Cc1ccc(Cl)c(Cl)c1)[C@@H]1CCCC[C@H]1N1CCCC1` (relative stereo): in the assay on kappa opioid receptor [1], the “kappa opioid receptor agonist activity (in words)” value is reported as “selective kappa opioid receptor agonist activity”.

With `CN(C(=O)Cc1cccc2sccc12)[C@@H]1CCC2(CCCO2)C[C@H]1N1CCCC1` (stereo partly drawn), at kappa opioid receptor [2], the Ratio of kappa/mu binding stood at 163 and the Ki is 2.97 nM. The Ki on mu opioid receptor was found to be 484 nM. Besides, in the assay with rat, the “Rat Paw Pressure (MPE50 I.V.)” value came out at 0.02 Mg/kg.

Take `CN(C(=O)Cc1cc2ccccc2s1)C1CCC2(CCCO2)CC1N1CCCC1` (stereo not drawn): on kappa opioid receptor [2], the Ratio of kappa/mu binding came to 49 and the Ki was determined as 1.75 nM. The Ki on mu opioid receptor was found to be 86.2 nM. Besides, in the assay on rat, the “Rat Paw Pressure (MPE50 I.V.)” value was determined as 0.03 Mg/kg.

Values taken from US4737493A, “7-((substitu ted)amino)-8-((substituted)carbonyl)-methylamino)-1-oxaspiro(4,5)decanes as analgesic agents” (dated 1988).
